This is a selection; strong and weak results do not stand in their true shares. Calls of active or inactive are those of the source.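 How the source made its calls: active means mean inhibition across replicates above the hit cutoff derived for the earlier primary screen (cut at about 22% in these data); inactive means the rest.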

By UniProt entry, the sequences of proteins in these tests, tags left out.
UniProt Q99873, whole entry, looked up: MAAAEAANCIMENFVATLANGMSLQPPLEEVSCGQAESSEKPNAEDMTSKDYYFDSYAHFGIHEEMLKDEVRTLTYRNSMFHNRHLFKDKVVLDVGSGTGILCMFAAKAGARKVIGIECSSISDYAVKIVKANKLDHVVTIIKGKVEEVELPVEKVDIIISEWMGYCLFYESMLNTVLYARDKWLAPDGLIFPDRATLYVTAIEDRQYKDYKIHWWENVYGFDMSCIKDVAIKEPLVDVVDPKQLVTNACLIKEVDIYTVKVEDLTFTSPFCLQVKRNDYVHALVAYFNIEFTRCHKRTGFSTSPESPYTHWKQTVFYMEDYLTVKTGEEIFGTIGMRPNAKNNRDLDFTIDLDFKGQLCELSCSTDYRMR

The test deals with Protein arginine N-methyltransferase 1 (Homo sapiens) (UniProt Q99873). The test is described as follows: human PRMT1 activity-probe blockers, retest – biochemical, fluorescence polarization, triplicate, confirmation (AID 687036). As to conditions: recombinant His-PRMT1, activity-based probe fluorescence polarization; at 2.79 µM; stronger effect = higher value.
For the compound `Cc1cc(SC(NC=O)C(Cl)(Cl)Cl)ncn1` (stereo unspecified), the inhibition is active: 45.2%.

Take `CC(C)(C)C(=O)NC(Sc1ncccn1)C(Cl)(Cl)Cl` (stereo unspecified): the inhibition was inactive: 2.62%.

With `COc1ccc(C2=NCC(CBr)S2)cc1` (stereo unspecified), the inhibition was active: 38.3%.

In the case of `CC(C)(C)C(=O)NC(Sc1ccncn1)C(Cl)(Cl)Cl` (stereo unspecified), the inhibition was inactive: 7.31%.

Turning to `Cc1cc(SC(NC(=O)c2ccc(F)cc2)C(Cl)(Cl)Cl)ncn1` (stereo unspecified), the inhibition was active: 58.4%.

Consider `O=C(NC(Sc1ccncn1)C(Cl)(Cl)Cl)c1ccccc1` (stereo unspecified), for which the inhibition is inactive: 14.1%.

Values taken from PubChem BioAssay AID687036 (The Scripps Research Institute Molecular Screening Center, 2013).
